Data reported in ChEMBL document CHEMBL2396607 (Bioorg Med Chem Lett, 2013).

The chains behind the UniProt entries cited, without tags or fusion partners.
UniProt P42336, whole entry: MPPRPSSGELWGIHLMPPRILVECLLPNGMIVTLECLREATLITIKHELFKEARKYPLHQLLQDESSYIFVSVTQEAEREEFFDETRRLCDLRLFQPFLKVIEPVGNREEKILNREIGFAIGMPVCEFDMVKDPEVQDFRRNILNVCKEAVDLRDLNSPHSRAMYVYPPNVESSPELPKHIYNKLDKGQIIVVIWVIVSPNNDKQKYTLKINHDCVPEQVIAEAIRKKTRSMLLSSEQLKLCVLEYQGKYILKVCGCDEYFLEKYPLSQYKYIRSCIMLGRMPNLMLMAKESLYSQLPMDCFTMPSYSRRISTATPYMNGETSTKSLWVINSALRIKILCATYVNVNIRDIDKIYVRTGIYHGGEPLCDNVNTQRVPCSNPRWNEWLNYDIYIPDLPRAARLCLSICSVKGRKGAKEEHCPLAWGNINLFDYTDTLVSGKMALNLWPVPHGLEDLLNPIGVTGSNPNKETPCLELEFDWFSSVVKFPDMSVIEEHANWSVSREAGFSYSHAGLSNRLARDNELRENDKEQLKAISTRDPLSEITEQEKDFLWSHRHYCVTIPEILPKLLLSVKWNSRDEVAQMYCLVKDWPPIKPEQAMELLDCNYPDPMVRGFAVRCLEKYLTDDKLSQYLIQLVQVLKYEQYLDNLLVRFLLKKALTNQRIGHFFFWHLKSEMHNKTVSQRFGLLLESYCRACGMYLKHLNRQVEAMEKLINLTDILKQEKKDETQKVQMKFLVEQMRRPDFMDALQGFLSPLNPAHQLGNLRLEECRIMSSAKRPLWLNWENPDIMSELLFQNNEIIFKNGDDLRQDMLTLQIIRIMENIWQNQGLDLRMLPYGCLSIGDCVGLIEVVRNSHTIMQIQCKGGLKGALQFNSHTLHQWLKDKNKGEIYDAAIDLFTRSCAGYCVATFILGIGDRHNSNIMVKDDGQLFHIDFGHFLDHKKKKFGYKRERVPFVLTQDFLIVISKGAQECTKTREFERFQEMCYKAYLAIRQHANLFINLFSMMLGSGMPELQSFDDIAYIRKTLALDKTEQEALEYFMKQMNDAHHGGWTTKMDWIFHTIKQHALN

Legend:
[1] = molecular target: T1, Phosphatidylinositol 4,5-bisphosphate 3-kinase catalytic subunit alpha isoform (Homo sapiens, UniProt P42336); assay: Inhibition of N-terminal myristoylated P110alpha (unknown origin)-mediated AKT phosphorylation at Ser473 expressed in rat Rat1 cells by ELISA; assay type: cell-based
[2] = molecular target: T1, Phosphatidylinositol 4,5-bisphosphate 3-kinase catalytic subunit alpha isoform; assay: Inhibition of P110alpha (unknown origin) using L-a-phosphatidylinositol as substrate by luminescence assay

SMILES | IC50 [1] [nM] | IC50 [2] [nM]
Cc1nc(NC(=O)N2CCC[C@H]2C(N)=O)sc1-c1ccnc(C(C)(C)C)c1 | 61 | 
Cc1nc(NC(=O)N2CCC[C@@H]2C(N)=O)sc1-c1ccnc(C(C)(C)C)c1 |  | > 9100
Cc1nc(NC(=O)N2CCC[C@H]2C(N)=O)sc1-c1ccnc(C2(C)CC2)n1 | 150 | 
